Publication PMC3691235, “Discovery of a Novel Dual Fungal CYP51/Human 5-Lipoxygenase Inhibitor: Implications for Anti-Fungal Therapy” (PLoS ONE, 2013)
pIC50: −log10 of the molar value.

Target: T1, human prostate epithelial 15-lipoxygenase-2 (15-LOX-2) (Homo sapiens, UniProt O15296)
T1 construct: His6 (N); made in house
T1 sequence (O15296 1-676): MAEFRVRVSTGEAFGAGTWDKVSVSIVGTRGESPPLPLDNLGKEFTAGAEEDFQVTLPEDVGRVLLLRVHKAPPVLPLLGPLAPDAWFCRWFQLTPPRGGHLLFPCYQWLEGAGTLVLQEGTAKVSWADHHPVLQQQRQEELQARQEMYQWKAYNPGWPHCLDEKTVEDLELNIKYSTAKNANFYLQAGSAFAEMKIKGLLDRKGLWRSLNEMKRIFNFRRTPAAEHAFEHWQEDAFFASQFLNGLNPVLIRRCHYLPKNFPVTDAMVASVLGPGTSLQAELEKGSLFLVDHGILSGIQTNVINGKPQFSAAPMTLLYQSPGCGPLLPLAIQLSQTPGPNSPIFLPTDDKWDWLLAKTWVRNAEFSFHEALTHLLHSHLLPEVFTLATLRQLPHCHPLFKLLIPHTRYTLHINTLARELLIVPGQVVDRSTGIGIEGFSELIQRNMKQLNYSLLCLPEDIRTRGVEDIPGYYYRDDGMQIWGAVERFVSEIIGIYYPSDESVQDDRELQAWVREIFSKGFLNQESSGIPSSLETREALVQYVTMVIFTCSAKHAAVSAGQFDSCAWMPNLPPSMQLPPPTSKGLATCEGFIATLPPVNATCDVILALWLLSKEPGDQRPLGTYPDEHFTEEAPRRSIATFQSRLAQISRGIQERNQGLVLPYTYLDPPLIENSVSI
Assay: Lipoxygenase UV-based inhibitor assay, 15-LOX-2
Assay type: biochemical
Description: Human leukocyte 5-lipoxygenase was expressed as a non-tagged protein and used as a crude ammonium sulfate protein fraction, as published previously.
Inhibitor potencies were evaluated through use of the standard UV-based inhibitor assay. The initial rates were determined by following the formation of the conjugated diene product at 234 nm (ε = 25,000 M^−1 cm^−1) with a Perkin-Elmer Lambda 40 UV/Vis spectrophotometer at one substrate concentration and varying inhibitor concentrations. All reactions were 2 mL in volume and constantly stirred using a magnetic stir bar at room temperature (23°C), with the enzyme specific buffer conditions outlined in Table 1. The substrate used for the various isozymes was arachidonic acid (AA) for 5-LOX, 12-LOX, and 15-LOX-2 and linoleic acid (LA) for 15-LOX-1, where concentrations were quantitatively determined by allowing the enzymatic reaction to go to completion. IC50 values were obtained by determining the initial rate at various inhibitor concentrations and plotting them against inhibitor concentration, followed by a hyperbolic saturation curve fit. The data used for the saturation curves were performed in duplicate or triplicate, depending on the quality of the data. […] Inhibitors were stored at −20°C in DMSO. […] The pH of the buffered D2O was determined as reported previously.

## CC(c1cc2ccccc2s1)N(O)C(N)=O (stereo not shown) [zileuton, reference compound]
  pIC50: < 3.82
